These results are taken from patent publication US20260207704A1, “STAPLED PEPTIDES AND METHODS THEREOF” (priority 2022, published 2026).

Protein sequences, listed by entry. Tags and fused reporters are not part of them.
UniProt P35222, whole entry: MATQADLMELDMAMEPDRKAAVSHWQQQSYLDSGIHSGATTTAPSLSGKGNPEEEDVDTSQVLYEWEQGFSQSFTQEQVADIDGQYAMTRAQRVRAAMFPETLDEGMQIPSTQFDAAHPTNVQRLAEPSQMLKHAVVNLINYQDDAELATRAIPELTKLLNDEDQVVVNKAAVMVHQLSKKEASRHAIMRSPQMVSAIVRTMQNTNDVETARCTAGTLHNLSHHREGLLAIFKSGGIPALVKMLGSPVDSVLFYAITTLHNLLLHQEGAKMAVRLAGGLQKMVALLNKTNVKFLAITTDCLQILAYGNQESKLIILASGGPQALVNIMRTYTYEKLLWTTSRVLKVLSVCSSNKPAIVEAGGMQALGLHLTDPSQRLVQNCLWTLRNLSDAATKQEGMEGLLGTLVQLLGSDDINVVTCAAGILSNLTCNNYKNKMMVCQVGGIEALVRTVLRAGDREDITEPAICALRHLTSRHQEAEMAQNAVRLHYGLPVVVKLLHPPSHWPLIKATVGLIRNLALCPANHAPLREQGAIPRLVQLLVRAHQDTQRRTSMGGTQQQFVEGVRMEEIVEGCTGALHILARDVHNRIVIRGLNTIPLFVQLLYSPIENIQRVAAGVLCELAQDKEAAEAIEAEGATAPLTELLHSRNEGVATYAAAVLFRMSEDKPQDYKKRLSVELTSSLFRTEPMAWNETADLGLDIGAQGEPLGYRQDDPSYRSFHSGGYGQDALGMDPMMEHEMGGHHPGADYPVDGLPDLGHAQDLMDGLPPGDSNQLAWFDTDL

One test deals with beta-catenin (Homo sapiens, UniProt P35222). Nature of the test: fluorescence polarization binding to beta-catenin. As to conditions: beta-Catenin FP IC50 (nM).
The next test has as its target T1, beta-catenin/TCF4 (Homo sapiens, UniProt P35222).
T1 construct: expressed in transfected cells; host or cells: HEK293 cells
Nature of the test: Nano-BRET target engagement assay (HEK293 cells). It is filed as cell-based.

Take `CC(=O)N1CCC[C@]12CC=CCCCC1(CCCC=CCCCOC(=O)N3CC[C@@]4(C3)NC(=O)[C@H](CCCCNC(=O)CC[C@@H](C(=O)N[C@@H](C)C(N)=O)NC(=O)[C@H](Cc3csc5ccccc35)NC(=O)[C@H](Cc3ccccc3C(F)(F)F)NC4=O)NC(=O)[C@H](Cc3ccccc3)NC(=O)[C@H](C)NC(=O)C(C)(C)NC(=O)[C@H](Cc3ccc(O)c(C(=O)O)c3)NC(=O)[C@H](CC(=O)O)NC1=O)NC(=O)[C@H](CC(C)(C)C)NC(=O)[C@H](CC(=O)O)NC2=O` (relative stereo) [I-194, Ac-PL3-Asp-Npg-B5-Asp-40H3COOHF-Aib-Ala-Phe-Lys*3-PyrS2-2F3MeF-BztA-GlnR*3-Ala-NH2]: the results for the IC50 on beta-catenin and against beta-catenin/TCF4 were below 50 nM and below 1500 nM, respectively.
Take `CC(=O)N1CCC[C@]12CC=CCCCC1(CCCC=CCCCOC(=O)N3CC[C@@]4(C3)NC(=O)[C@H](CCCCNC(=O)CC[C@@H](C(=O)N[C@@H](C)C(N)=O)NC(=O)[C@H](Cc3csc5ccccc35)NC(=O)[C@H](Cc3ccccc3C(F)(F)F)NC4=O)NC(=O)[C@H](Cc3ccccc3)NC(=O)[C@H](C)NC(=O)C(C)(C)NC(=O)[C@H](Cc3ccc(C(F)(F)F)c(C(=O)O)c3)NC(=O)[C@H](CC(=O)O)NC1=O)NC(=O)[C@H](CC(C)(C)C)NC(=O)[C@H](CC(=O)O)NC2=O` (relative stereo) [I-207, Ac-PL3-Asp-Npg-B5-Asp-4F3Me3COOHF-Aib-Ala-Phe-Lys*3-PyrS2-2F3MeF-BztA-GlnR*3-Ala-NH2]: the 50% inhibitory concentration (IC50) on beta-catenin is below 50 nM; against beta-catenin/TCF4, 1500 to 3000 nM.
In the case of `CC(=O)N1CCC[C@]12CC=CCCCC1(CCCC=CCCCOC(=O)N3CC[C@@]4(C3)NC(=O)[C@H](CCCCNC(=O)CC[C@@H](C(=O)N[C@@H](C)C(=O)NC(CO)CO)NC(=O)[C@H](Cc3csc5ccccc35)NC(=O)[C@H](Cc3ccccc3C(F)(F)F)NC4=O)NC(=O)[C@H](Cc3ccccc3)NC(=O)[C@H](C)NC(=O)C(C)(C)NC(=O)[C@H](Cc3cccc(C(=O)O)c3)NC(=O)[C@H](CC(=O)O)NC1=O)NC(=O)[C@H](CC(C)(C)C)NC(=O)[C@H](CC(=O)O)NC2=O` (relative stereo) [I-223, Ac-PL3-Asp-Npg-B5-Asp-3COOHF-Aib-Ala-Phe-Lys*3-PyrS2-2F3MeF-BztA-GlnR*3-Ala-Serol], the IC50 at beta-catenin was below 50 nM; at beta-catenin/TCF4, 1500 to 3000 nM.
As for `CC(=O)N1CCC[C@]12CC=CCCCC1(CCCC=CCCCOC(=O)N3CC[C@@]4(C3)NC(=O)[C@H](CCCCNC(=O)CC[C@@H](C(=O)N[C@@H](CCCN3CCOCC3)C(=O)NC(CO)CO)NC(=O)[C@H](Cc3csc5ccccc35)NC(=O)[C@H](Cc3ccccc3C(F)(F)F)NC4=O)NC(=O)[C@H](Cc3ccccc3)NC(=O)[C@H](C)NC(=O)C(C)(C)NC(=O)[C@H](Cc3cccc(C(=O)O)c3)NC(=O)[C@H](CC(=O)O)NC1=O)NC(=O)[C@H](CC(C)(C)C)NC(=O)[C@H](CC(=O)O)NC2=O` (relative stereo) [I-224, Ac-PL3-Asp-Npg-B5-Asp-3COOHF-Aib-Ala-Phe-Lys*3-PyrS2-2F3MeF-BztA-GlnR*3-MorphNva-Serol], the half-inhibitory concentration (IC50) was below 50 nM on beta-catenin and above 10000 nM on beta-catenin/TCF4.
For `CCNC(=O)[C@H](C)NC(=O)[C@@H]1CCC(=O)NCCCC[C@@H]2NC(=O)[C@H](Cc3ccccc3)NC(=O)[C@H](C)NC(=O)C(C)(C)NC(=O)[C@H](Cc3cccc(C(=O)O)c3)NC(=O)[C@H](CC(=O)O)NC(=O)C3(CCCC=CCCCOC(=O)N4CC[C@@](C4)(NC2=O)C(=O)N[C@@H](Cc2ccccc2C(F)(F)F)C(=O)N[C@@H](Cc2csc4ccccc24)C(=O)N1)CCCC=CC[C@]1(CCCN1C(C)=O)C(=O)N[C@@H](CC(=O)O)C(=O)N[C@@H](CC(C)(C)C)C(=O)N3` (relative stereo) [I-226, Ac-PL3-Asp-Npg-B5-Asp-3COOHF-Aib-Ala-Phe-Lys*3-PyrS2-2F3MeF-BztA-GlnR*3-Ala-NHEt] the same measures were below 50 nM and 1500 to 3000 nM.
